Experimental findings from PubChem BioAssay AID2528 (National Center for Advancing Translational Sciences (NCATS), 2010) are described below.

Protein sequences, listed by entry. Tags and fused reporters are not part of them.
UniProt P54132, whole entry: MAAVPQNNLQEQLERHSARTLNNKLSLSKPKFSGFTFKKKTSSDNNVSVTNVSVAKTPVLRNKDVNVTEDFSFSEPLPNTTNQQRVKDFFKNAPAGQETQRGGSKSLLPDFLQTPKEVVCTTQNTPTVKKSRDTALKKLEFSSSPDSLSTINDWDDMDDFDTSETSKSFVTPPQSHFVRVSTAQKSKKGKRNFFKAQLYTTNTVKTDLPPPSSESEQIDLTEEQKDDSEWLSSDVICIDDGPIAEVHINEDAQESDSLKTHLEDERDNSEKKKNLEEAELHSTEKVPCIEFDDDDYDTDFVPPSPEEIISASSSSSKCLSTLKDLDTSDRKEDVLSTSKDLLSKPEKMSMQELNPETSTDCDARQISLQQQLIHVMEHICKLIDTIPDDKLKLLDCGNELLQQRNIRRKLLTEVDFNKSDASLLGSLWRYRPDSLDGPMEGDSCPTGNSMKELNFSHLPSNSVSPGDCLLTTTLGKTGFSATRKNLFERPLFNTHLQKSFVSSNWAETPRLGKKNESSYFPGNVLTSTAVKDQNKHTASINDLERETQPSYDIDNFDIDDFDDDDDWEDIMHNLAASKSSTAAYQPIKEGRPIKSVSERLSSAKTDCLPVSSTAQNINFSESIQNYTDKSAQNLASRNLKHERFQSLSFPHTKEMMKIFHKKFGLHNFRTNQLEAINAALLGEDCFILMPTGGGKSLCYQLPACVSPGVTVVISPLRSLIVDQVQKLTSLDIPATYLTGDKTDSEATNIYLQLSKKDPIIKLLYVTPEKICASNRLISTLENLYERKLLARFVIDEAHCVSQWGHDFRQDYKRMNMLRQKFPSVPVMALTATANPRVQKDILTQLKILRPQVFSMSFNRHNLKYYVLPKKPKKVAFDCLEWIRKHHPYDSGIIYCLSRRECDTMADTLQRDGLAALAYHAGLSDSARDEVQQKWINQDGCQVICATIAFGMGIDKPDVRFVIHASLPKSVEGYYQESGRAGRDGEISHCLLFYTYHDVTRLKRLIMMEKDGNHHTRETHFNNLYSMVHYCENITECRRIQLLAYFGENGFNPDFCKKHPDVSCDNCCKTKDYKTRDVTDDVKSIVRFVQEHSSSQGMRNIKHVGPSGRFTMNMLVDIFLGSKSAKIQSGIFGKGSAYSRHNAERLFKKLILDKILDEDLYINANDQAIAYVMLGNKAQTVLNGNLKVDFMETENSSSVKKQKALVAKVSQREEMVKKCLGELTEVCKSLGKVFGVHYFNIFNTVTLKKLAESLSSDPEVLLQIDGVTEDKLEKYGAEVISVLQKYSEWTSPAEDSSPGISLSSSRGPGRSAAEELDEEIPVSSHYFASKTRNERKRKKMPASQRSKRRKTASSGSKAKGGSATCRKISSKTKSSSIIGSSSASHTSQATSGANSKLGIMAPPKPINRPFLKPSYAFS

The list shows a part of the results, in another mix than the full data. Some salts and complexes are drawn in separate pieces, as the source files them; their charges need not balance. Activity calls are given as the source filed them. The call rests on the fitted dose curve; in most records, active means well fitted inhibition curve with a large enough effect; inconclusive means small, poorly fitted or top-dose-only effect; inactive means flat fitted curve, though single readings scatter.

The target of the experiment is RecQ-like DNA helicase BLM (Homo sapiens) (UniProt P54132). As to the kind of experiment: qHTS Assay for Inhibitors of Bloom's syndrome helicase (BLM).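 Further: plate controls were vehicle for no effect and no enzyme for full effect; nearly all actives have a fitted effect of over 35% in size.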 The settings on record: recombinant BLM DNA unwinding, fluorescence dequenching; at 56.1 µM (top of the series).
Turning to `O=C(NCC1(N2CCCCC2)CCCCC1)c1ccc(OC(F)F)cc1`, the activity change, negative = inhibition is inactive: 1.63%. For the compound `O=C(NCC1(N2CCCCC2)CCCCC1)c1cccc([N+](=O)[O-])c1`, the activity change, negative = inhibition was inactive: 0.367%. Consider `CCOc1ccc(C(=O)NCC2(N3CCOCC3)CCCCC2)cc1`, for which the activity change, negative = inhibition was inactive: -1.41%. On to `N#CC1(Nc2ccccc2)CCN(CCc2ccccc2)CC1`, for which the activity change, negative = inhibition is inactive: -4.34%.

On to `CCN1CCC(Nc2ccc(Cl)cc2)CC1`, for which the activity change, negative = inhibition is inactive: -0.729%. On to `O=C(NCC1(N2CCCCC2)CCCCC1)c1cccc(C(F)(F)F)c1`, for which the activity change, negative = inhibition is inactive: -2.49%. For the compound `CCCOc1cccc(C(=O)NCC2(N3CCOCC3)CCCCC2)c1`, the activity change, negative = inhibition is inactive: -0.787%. For `O=[N+]([O-])c1cc([N+](=O)[O-])c(NCC2CCS(=O)(=O)C2)c([N+](=O)[O-])c1` (stereo not given), the activity change, negative = inhibition was inactive: -19%. Take `COc1ccc(NC2CCN(C(=O)OC(C)(C)C)CC2)cc1`: the activity change, negative = inhibition was inactive: -3.39%.

For the compound `CN1CCN(CCOC(=O)C(O)(c2ccccc2)c2ccccc2)CC1`, the activity change, negative = inhibition was inactive: 1.26%.

For the compound `O=C(NCC1(N2CCOCC2)CCCCC1)c1cc(=O)[nH]c2ccccc12`, the activity change, negative = inhibition was inactive: -0.957%.

Turning to `COc1cc(C(=O)NCC2(N3CCCCC3)CCCCC2)ccc1OC(F)F`, the activity change, negative = inhibition was inactive: 0.429%.

Take `CN(C)c1cccc(C(=O)NCC2(N3CCCCC3)CCCCC2)c1`: the activity change, negative = inhibition is inactive: 2.8%. Regarding `O=[N+]([O-])c1cc([N+](=O)[O-])c(OC2CCCCC2O)c([N+](=O)[O-])c1` (stereo not given), the activity change, negative = inhibition is inactive: -3.74%. To `COc1ccc(CN(CCCl)CCCl)cc1Cl` belongs inactive: -0.12%; to `CC(C)c1ccc(NC2CCN(C(=O)OC(C)(C)C)CC2)cc1`, inactive: -8.33%. Regarding `COc1cc(OC)c(C(=O)NCC2(N(C)C)CCCCC2)cc1OC`, the activity change, negative = inhibition was inactive: -12.9%.

As to `COc1ccc2c(c1O)-c1c(O)c(OC)cc3c1[C@H](C2)[N+](C)(C)CC3.O=[N+]([O-])c1cc([N+](=O)[O-])c([O-])c([N+](=O)[O-])c1[O-]`, the activity change, negative = inhibition was inactive: -6.81%. Consider `O=C(OC1CN2CCC1CC2)c1ccc([N+](=O)[O-])cc1` (stereo not given), for which the activity change, negative = inhibition was inactive: -6.49%. On to `CCCOc1ccc(C(=O)NCC2(N(C)C)CCCCC2)cc1OC`, for which the activity change, negative = inhibition is inactive: 1.11%. On to `O=C(NCC1(N2CCOCC2)CCCCC1)c1ccccc1Br`, for which the activity change, negative = inhibition is inactive: 1.43%. In the case of `CCCCOc1ccccc1C(=O)NCC1(N2CCOCC2)CCCCC1`, the activity change, negative = inhibition is inactive: -0.643%. For the compound `O=C(NCC1(N2CCCCC2)CCCCC1)c1ccc(=O)[nH]c1`, the activity change, negative = inhibition was inactive: 0.634%. In the case of `CC(C)(C)OC(=O)N1CCC(N(C(=O)c2ccccc2)c2ccc(F)cc2)CC1`, the activity change, negative = inhibition was inactive: -4.01%.

With `COc1ccc(C(=O)NCC2(N3CCCCC3)CCCCC2)c(OC)c1OC`, the activity change, negative = inhibition is inactive: -2.23%.
